The numbers were not newly measured in article PMC10718521, “Complexity of αvβ6-integrin targeting RGD peptide trimers: emergence of non-specific binding by synergistic interaction” (RSC Medicinal Chemistry, 2023), which cites them from elsewhere.

Amino acid sequences for entries named in this document (tags omitted). Residues count along the entry.
UniProt P06756, 31-992 limits assumed: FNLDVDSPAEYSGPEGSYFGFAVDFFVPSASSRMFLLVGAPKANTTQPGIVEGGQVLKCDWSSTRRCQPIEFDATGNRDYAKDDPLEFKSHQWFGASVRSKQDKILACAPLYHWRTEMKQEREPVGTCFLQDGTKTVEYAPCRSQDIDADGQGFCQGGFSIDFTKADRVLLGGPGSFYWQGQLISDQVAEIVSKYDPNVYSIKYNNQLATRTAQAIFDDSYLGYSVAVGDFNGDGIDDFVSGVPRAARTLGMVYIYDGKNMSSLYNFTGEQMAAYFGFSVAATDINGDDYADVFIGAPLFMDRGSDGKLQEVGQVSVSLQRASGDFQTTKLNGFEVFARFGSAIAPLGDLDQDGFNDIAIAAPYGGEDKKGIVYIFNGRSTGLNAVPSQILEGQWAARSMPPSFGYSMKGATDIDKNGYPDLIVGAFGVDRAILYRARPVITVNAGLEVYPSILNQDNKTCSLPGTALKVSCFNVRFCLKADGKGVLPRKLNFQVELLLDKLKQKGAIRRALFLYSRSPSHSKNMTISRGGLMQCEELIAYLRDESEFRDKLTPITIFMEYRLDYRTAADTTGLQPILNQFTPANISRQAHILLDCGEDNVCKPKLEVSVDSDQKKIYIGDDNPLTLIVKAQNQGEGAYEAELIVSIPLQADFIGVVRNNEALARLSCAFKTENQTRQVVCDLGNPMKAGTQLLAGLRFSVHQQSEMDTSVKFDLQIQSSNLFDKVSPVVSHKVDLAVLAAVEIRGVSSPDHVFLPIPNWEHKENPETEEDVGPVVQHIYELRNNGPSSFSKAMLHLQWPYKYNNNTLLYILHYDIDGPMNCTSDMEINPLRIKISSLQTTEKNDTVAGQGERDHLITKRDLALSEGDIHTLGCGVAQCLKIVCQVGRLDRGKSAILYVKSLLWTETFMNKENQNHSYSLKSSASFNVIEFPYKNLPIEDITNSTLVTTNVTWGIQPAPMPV
UniProt P18564, 22-707 limits assumed: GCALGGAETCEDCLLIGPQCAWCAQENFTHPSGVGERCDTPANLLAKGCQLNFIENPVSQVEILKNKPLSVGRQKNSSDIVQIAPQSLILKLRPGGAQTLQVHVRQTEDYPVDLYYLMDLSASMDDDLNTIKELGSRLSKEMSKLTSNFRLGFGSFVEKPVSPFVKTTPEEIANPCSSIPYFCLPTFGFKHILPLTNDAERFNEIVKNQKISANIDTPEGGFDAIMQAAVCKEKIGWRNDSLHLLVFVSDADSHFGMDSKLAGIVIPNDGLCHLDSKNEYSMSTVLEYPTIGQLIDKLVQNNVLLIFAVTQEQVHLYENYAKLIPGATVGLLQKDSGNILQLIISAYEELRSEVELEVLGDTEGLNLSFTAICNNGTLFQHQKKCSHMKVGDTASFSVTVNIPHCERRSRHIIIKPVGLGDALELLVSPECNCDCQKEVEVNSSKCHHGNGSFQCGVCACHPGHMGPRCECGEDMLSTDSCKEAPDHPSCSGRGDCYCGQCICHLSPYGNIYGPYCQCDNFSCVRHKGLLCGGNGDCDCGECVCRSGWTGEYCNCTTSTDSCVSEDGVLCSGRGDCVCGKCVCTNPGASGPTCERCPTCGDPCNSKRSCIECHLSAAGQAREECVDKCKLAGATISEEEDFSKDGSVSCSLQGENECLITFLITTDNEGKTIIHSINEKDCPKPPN

The data set has as its target αvβ6-integrin (Homo sapiens, UniProt P06756+P18564). As to conditions: IC50-based; cited from earlier work.

Each structure is given as a SMILES string.

For `C#CCCC(=O)NCCCC[C@H]1C(=O)N[C@@H](Cc2ccccc2)C(=O)N[C@@H](CCCNC(=N)N)C(=O)NCC(=O)N[C@@H](CC(=O)O)C(=O)N[C@@H](CC(C)C)C(=O)N[C@@H](C)C(=O)N[C@@H](Cc2ccccc2)C(=O)N2CCC[C@@H]2C(=O)N1C`, the αvβ6-selectivity over α5β1 is 1330, the αvβ6-selectivity over αvβ3 was 2490 and the αvβ6-selectivity over αvβ8 is 188.

`C#CCCC(=O)NCCCC[C@H]1C(=O)N[C@@H](Cc2ccc(O)cc2)C(=O)N[C@@H](CCCNC(=N)N)C(=O)NCC(=O)N[C@@H](CC(=O)O)C(=O)N[C@@H](CC(C)C)C(=O)N[C@@H](C)C(=O)N[C@@H](Cc2ccc(O)cc2)C(=O)N2CCC[C@@H]2C(=O)N1C`: the αvβ6-selectivity over α5β1 was 179, the αvβ6-selectivity over αvβ3 is 261 and the αvβ6-selectivity over αvβ8 was 31.
